Assay results published in patent US9532983B2, “Benzofuran compounds, compositions, kits and/or methods thereof” (Savannah State University, priority 2013, dated 2017).

Chains of the proteins cited; added tags and fusions are not shown.
UniProt Q9R0C9, whole entry: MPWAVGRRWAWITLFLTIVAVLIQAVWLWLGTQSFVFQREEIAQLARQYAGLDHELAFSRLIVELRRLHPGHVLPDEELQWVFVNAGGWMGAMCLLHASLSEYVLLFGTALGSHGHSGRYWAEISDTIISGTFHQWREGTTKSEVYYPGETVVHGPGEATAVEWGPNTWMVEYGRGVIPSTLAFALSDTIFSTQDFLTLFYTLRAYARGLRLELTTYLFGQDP

Target: T1, σ1 receptor (Rattus norvegicus, UniProt Q9R0C9)
T1 construct: crude membrane fractions prepared from rat brain homogenate for σ1 receptors; from tissue; host or cells: rat brain homogenate, crude membrane fraction
Test: Primary binding assay at σ1 receptor (NIMH-PDSP)
Conditions: 10 μM (final) assay concentration, read-out: % Inhibition σ-1
Description: Initial primary binding screening assays were performed using a 50 μM (initial)−10 μM (final) assay concentration of reference and test compounds.
Finally, either crude membrane fractions prepared from rat brain homogenate for σ1 receptors or PC12 cell homogenates for σ2 receptors were added to the wells, and the plates shielded from light to prevent photolysis of light sensitive ligands.

`Cc1c(C(=O)N(CCCN2CCCCC2)c2ccccc2)oc2ccccc12` [KSCM-5, 3-Methyl-N-phenyl-N-(3-(piperidin-1-yl)propyl)benzofuran-2-carboxamide] showed an inhibition at 10 µM of 101%.
